Source: PubChem BioAssay (NCI)
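Test compounds were applied to cells in 96-well plates for 48 hours at 5 doses. GI50 = concentration required for 50% inhibition of growth. TGI: total growth inhibition.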

What was measured:
Assay in all cases: DTP human tumour cell line panel, 48 h
EKVX NSCLC = system: EKVX NSCLC
SK-MEL-28 melanoma = system: SK-MEL-28 melanoma
M14 melanoma = system: M14 melanoma
MCF7 breast = system: MCF7 breast
HT29 colon = system: HT29 colon
MDA-MB-435 = system: MDA-MB-435
NCI/ADR-RES ovarian = system: NCI/ADR-RES ovarian
PC-3 prostate = system: PC-3 prostate
HCT-116 colon = system: HCT-116 colon
NCI-H226 lung = system: NCI-H226 lung
NCI-H322M lung = system: NCI-H322M lung
SK-MEL-5 melanoma = system: SK-MEL-5 melanoma
IGROV1 ovarian = system: IGROV1 ovarian
DU-145 prostate = system: DU-145 prostate
OVCAR-4 ovarian = system: OVCAR-4 ovarian
UACC-62 melanoma = system: UACC-62 melanoma
K-562 leukemia = system: K-562 leukemia
SF-539 CNS = system: SF-539 CNS
ACHN renal = system: ACHN renal
A549 NSCLC = system: A549 NSCLC
NCI-H460 lung = system: NCI-H460 lung
OVCAR-5 ovarian = system: OVCAR-5 ovarian
HCT-15 colon = system: HCT-15 colon
OVCAR-3 ovarian = system: OVCAR-3 ovarian
LOX IMVI melanoma = system: LOX IMVI melanoma
SR leukemia = system: SR leukemia
TK-10 renal = system: TK-10 renal
SN12C renal = system: SN12C renal
SNB-75 CNS = system: SNB-75 CNS
OVCAR-8 ovarian = system: OVCAR-8 ovarian
COLO 205 colon = system: COLO 205 colon
SNB-19 CNS = system: SNB-19 CNS
MOLT-4 leukemia = system: MOLT-4 leukemia
CAKI-1 renal = system: CAKI-1 renal
SK-MEL-2 melanoma = system: SK-MEL-2 melanoma
CCRF-CEM leukemia = system: CCRF-CEM leukemia
A498 renal = system: A498 renal
MDA-MB-231 breast = system: MDA-MB-231 breast
UACC-257 melanoma = system: UACC-257 melanoma
HL-60(TB) leukemia = system: HL-60(TB) leukemia
KM12 colon = system: KM12 colon
HOP-92 NSCLC = system: HOP-92 NSCLC
UO-31 renal = system: UO-31 renal
786-0 renal = system: 786-0 renal
SF-295 CNS = system: SF-295 CNS
SW-620 colon = system: SW-620 colon
U251 CNS = system: U251 CNS
SK-OV-3 ovarian = system: SK-OV-3 ovarian
RXF 393 renal = system: RXF 393 renal

Question: Which GI50 (EKVX NSCLC) does the source give for `O=[N+]([O-])c1ncn(F)c1[N+](=O)[O-]` here?
Answer: The GI50 was > 100 µM.

Question: What about the TGI (EKVX NSCLC) of the same compound?
Answer: The TGI was > 100 µM.

Question: What about the GI50 (SK-MEL-28 melanoma) of the same compound?
Answer: The GI50 was > 100 µM.

Question: What about the TGI (SK-MEL-28 melanoma) of the same compound?
Answer: The TGI was > 100 µM.

Question: And the GI50 (M14 melanoma)?
Answer: The GI50 was > 100 µM.

Question: What about the TGI (M14 melanoma) of the same compound?
Answer: Its TGI is > 100 µM.

Question: What about the GI50 (MCF7 breast) of the same compound?
Answer: Its GI50 is > 100 µM.

Question: And the TGI (MCF7 breast)?
Answer: Its TGI is > 100 µM.

Question: What about the GI50 (HT29 colon) of the same compound?
Answer: Its GI50 is > 100 µM.

Question: And the TGI (HT29 colon)?
Answer: The TGI was > 100 µM.

Question: What about the GI50 (MDA-MB-435) of the same compound?
Answer: Its GI50 is > 100 µM.

Question: And the TGI (MDA-MB-435)?
Answer: The TGI was > 100 µM.

Question: And the GI50 (NCI/ADR-RES ovarian)?
Answer: The GI50 was > 100 µM.

Question: And the TGI (NCI/ADR-RES ovarian)?
Answer: The TGI was > 100 µM.

Question: What about the GI50 (PC-3 prostate) of the same compound?
Answer: The GI50 was > 100 µM.

Question: What about the TGI (PC-3 prostate) of the same compound?
Answer: The TGI was > 100 µM.

Question: What about the GI50 (HCT-116 colon) of the same compound?
Answer: Its GI50 is > 100 µM.

Question: And the TGI (HCT-116 colon)?
Answer: The TGI was > 100 µM.

Question: What about the GI50 (NCI-H226 lung) of the same compound?
Answer: The GI50 was 93.4 µM.

Question: What about the TGI (NCI-H226 lung) of the same compound?
Answer: Its TGI is > 100 µM.

Question: What about the GI50 (NCI-H322M lung) of the same compound?
Answer: The GI50 was > 100 µM.

Question: What about the TGI (NCI-H322M lung) of the same compound?
Answer: The TGI was > 100 µM.

Question: What about the GI50 (SK-MEL-5 melanoma) of the same compound?
Answer: Its GI50 is > 100 µM.

Question: And the TGI (SK-MEL-5 melanoma)?
Answer: Its TGI is > 100 µM.

Question: What about the GI50 (IGROV1 ovarian) of the same compound?
Answer: Its GI50 is > 100 µM.

Question: What about the TGI (IGROV1 ovarian) of the same compound?
Answer: The TGI was > 100 µM.

Question: And the GI50 (DU-145 prostate)?
Answer: Its GI50 is > 100 µM.

Question: What about the TGI (DU-145 prostate) of the same compound?
Answer: Its TGI is > 100 µM.

Question: And the GI50 (OVCAR-4 ovarian)?
Answer: Its GI50 is 49.9 µM.

Question: What about the TGI (OVCAR-4 ovarian) of the same compound?
Answer: The TGI was > 100 µM.

Question: And the GI50 (UACC-62 melanoma)?
Answer: Its GI50 is > 100 µM.

Question: What about the TGI (UACC-62 melanoma) of the same compound?
Answer: The TGI was > 100 µM.

Question: What about the GI50 (K-562 leukemia) of the same compound?
Answer: Its GI50 is > 100 µM.

Question: What about the TGI (K-562 leukemia) of the same compound?
Answer: The TGI was > 100 µM.

Question: What about the GI50 (SF-539 CNS) of the same compound?
Answer: The GI50 was > 100 µM.

Question: What about the TGI (SF-539 CNS) of the same compound?
Answer: Its TGI is > 100 µM.

Question: And the GI50 (ACHN renal)?
Answer: The GI50 was 94.6 µM.

Question: What about the TGI (ACHN renal) of the same compound?
Answer: Its TGI is > 100 µM.

Question: And the GI50 (A549 NSCLC)?
Answer: The GI50 was > 100 µM.

Question: And the TGI (A549 NSCLC)?
Answer: Its TGI is > 100 µM.

Question: And the GI50 (NCI-H460 lung)?
Answer: The GI50 was > 100 µM.

Question: What about the TGI (NCI-H460 lung) of the same compound?
Answer: Its TGI is > 100 µM.

Question: And the GI50 (OVCAR-5 ovarian)?
Answer: Its GI50 is > 100 µM.

Question: And the TGI (OVCAR-5 ovarian)?
Answer: Its TGI is > 100 µM.

Question: What about the GI50 (HCT-15 colon) of the same compound?
Answer: Its GI50 is 41.7 µM.

Question: And the TGI (HCT-15 colon)?
Answer: The TGI was > 100 µM.

Question: And the GI50 (OVCAR-3 ovarian)?
Answer: The GI50 was > 100 µM.

Question: What about the TGI (OVCAR-3 ovarian) of the same compound?
Answer: The TGI was > 100 µM.

Question: What about the GI50 (LOX IMVI melanoma) of the same compound?
Answer: The GI50 was 79.8 µM.

Question: What about the TGI (LOX IMVI melanoma) of the same compound?
Answer: Its TGI is > 100 µM.

Question: And the GI50 (SR leukemia)?
Answer: The GI50 was 59.6 µM.

Question: And the TGI (SR leukemia)?
Answer: The TGI was > 100 µM.

Question: What about the GI50 (TK-10 renal) of the same compound?
Answer: The GI50 was > 100 µM.

Question: What about the TGI (TK-10 renal) of the same compound?
Answer: Its TGI is > 100 µM.

Question: What about the GI50 (SN12C renal) of the same compound?
Answer: Its GI50 is > 100 µM.

Question: What about the TGI (SN12C renal) of the same compound?
Answer: Its TGI is > 100 µM.

Question: And the GI50 (SNB-75 CNS)?
Answer: Its GI50 is > 100 µM.

Question: And the TGI (SNB-75 CNS)?
Answer: Its TGI is > 100 µM.

Question: What about the GI50 (OVCAR-8 ovarian) of the same compound?
Answer: Its GI50 is > 100 µM.

Question: What about the TGI (OVCAR-8 ovarian) of the same compound?
Answer: Its TGI is > 100 µM.

Question: And the GI50 (COLO 205 colon)?
Answer: The GI50 was > 100 µM.

Question: What about the TGI (COLO 205 colon) of the same compound?
Answer: Its TGI is > 100 µM.

Question: What about the GI50 (SNB-19 CNS) of the same compound?
Answer: Its GI50 is > 100 µM.

Question: And the TGI (SNB-19 CNS)?
Answer: The TGI was > 100 µM.

Question: And the GI50 (MOLT-4 leukemia)?
Answer: Its GI50 is > 100 µM.

Question: What about the TGI (MOLT-4 leukemia) of the same compound?
Answer: Its TGI is > 100 µM.

Question: And the GI50 (CAKI-1 renal)?
Answer: Its GI50 is 41.2 µM.

Question: What about the TGI (CAKI-1 renal) of the same compound?
Answer: Its TGI is > 100 µM.

Question: What about the GI50 (SK-MEL-2 melanoma) of the same compound?
Answer: Its GI50 is > 100 µM.

Question: What about the TGI (SK-MEL-2 melanoma) of the same compound?
Answer: Its TGI is > 100 µM.

Question: What about the GI50 (CCRF-CEM leukemia) of the same compound?
Answer: Its GI50 is 60.9 µM.

Question: And the TGI (CCRF-CEM leukemia)?
Answer: Its TGI is > 100 µM.

Question: And the GI50 (A498 renal)?
Answer: The GI50 was > 100 µM.

Question: And the TGI (A498 renal)?
Answer: The TGI was > 100 µM.

Question: What about the GI50 (MDA-MB-231 breast) of the same compound?
Answer: The GI50 was > 100 µM.

Question: And the TGI (MDA-MB-231 breast)?
Answer: The TGI was > 100 µM.

Question: And the GI50 (UACC-257 melanoma)?
Answer: Its GI50 is > 100 µM.

Question: What about the TGI (UACC-257 melanoma) of the same compound?
Answer: Its TGI is > 100 µM.

Question: What about the TGI (HL-60(TB) leukemia) of the same compound?
Answer: The TGI was > 100 µM.

Question: And the GI50 (KM12 colon)?
Answer: Its GI50 is > 100 µM.

Question: What about the TGI (KM12 colon) of the same compound?
Answer: The TGI was > 100 µM.

Question: And the GI50 (HOP-92 NSCLC)?
Answer: The GI50 was > 100 µM.

Question: What about the TGI (HOP-92 NSCLC) of the same compound?
Answer: Its TGI is > 100 µM.

Question: And the GI50 (UO-31 renal)?
Answer: Its GI50 is > 100 µM.

Question: What about the TGI (UO-31 renal) of the same compound?
Answer: The TGI was > 100 µM.

Question: And the GI50 (786-0 renal)?
Answer: Its GI50 is > 100 µM.

Question: What about the TGI (786-0 renal) of the same compound?
Answer: The TGI was > 100 µM.

Question: And the GI50 (SF-295 CNS)?
Answer: The GI50 was > 100 µM.

Question: And the TGI (SF-295 CNS)?
Answer: The TGI was > 100 µM.

Question: What about the GI50 (SW-620 colon) of the same compound?
Answer: Its GI50 is > 100 µM.

Question: What about the TGI (SW-620 colon) of the same compound?
Answer: Its TGI is > 100 µM.

Question: And the GI50 (U251 CNS)?
Answer: The GI50 was > 100 µM.

Question: And the TGI (U251 CNS)?
Answer: The TGI was > 100 µM.

Question: What about the GI50 (SK-OV-3 ovarian) of the same compound?
Answer: The GI50 was > 100 µM.

Question: What about the TGI (SK-OV-3 ovarian) of the same compound?
Answer: The TGI was > 100 µM.

Question: What about the GI50 (RXF 393 renal) of the same compound?
Answer: Its GI50 is > 100 µM.

Question: What about the TGI (RXF 393 renal) of the same compound?
Answer: The TGI was > 100 µM.
